# Patent US10092621B2 (dated 2018)
# Test system: healthy volunteers
# Assay: Phase 1 MAD study: gastric emptying by scintigraphic imaging
# Assay type: in vivo, human
smiles,measurement,setting,value
C[C@@H]1CN[C@@H](C2CC2)C(=O)N(C)[C@H](C)C(=O)N[C@H](Cc2ccc(F)cc2)C(=O)NCCCc2ccccc2O1 [ulimorelin],"maximum effect of Emax model, improvement in gastric emptying",PK-PD modeling of Cmaxfree versus T50%,about 50%
same,improvement in gastric emptying,in vivo,25% and 40%

# Several values for one entry are separate records, joined by “and”; a condition that tells them apart may be missing. Equal entries are not always repeated.
